Amino acid sequences for entries named in this document (tags omitted).
UniProt P08183, whole entry: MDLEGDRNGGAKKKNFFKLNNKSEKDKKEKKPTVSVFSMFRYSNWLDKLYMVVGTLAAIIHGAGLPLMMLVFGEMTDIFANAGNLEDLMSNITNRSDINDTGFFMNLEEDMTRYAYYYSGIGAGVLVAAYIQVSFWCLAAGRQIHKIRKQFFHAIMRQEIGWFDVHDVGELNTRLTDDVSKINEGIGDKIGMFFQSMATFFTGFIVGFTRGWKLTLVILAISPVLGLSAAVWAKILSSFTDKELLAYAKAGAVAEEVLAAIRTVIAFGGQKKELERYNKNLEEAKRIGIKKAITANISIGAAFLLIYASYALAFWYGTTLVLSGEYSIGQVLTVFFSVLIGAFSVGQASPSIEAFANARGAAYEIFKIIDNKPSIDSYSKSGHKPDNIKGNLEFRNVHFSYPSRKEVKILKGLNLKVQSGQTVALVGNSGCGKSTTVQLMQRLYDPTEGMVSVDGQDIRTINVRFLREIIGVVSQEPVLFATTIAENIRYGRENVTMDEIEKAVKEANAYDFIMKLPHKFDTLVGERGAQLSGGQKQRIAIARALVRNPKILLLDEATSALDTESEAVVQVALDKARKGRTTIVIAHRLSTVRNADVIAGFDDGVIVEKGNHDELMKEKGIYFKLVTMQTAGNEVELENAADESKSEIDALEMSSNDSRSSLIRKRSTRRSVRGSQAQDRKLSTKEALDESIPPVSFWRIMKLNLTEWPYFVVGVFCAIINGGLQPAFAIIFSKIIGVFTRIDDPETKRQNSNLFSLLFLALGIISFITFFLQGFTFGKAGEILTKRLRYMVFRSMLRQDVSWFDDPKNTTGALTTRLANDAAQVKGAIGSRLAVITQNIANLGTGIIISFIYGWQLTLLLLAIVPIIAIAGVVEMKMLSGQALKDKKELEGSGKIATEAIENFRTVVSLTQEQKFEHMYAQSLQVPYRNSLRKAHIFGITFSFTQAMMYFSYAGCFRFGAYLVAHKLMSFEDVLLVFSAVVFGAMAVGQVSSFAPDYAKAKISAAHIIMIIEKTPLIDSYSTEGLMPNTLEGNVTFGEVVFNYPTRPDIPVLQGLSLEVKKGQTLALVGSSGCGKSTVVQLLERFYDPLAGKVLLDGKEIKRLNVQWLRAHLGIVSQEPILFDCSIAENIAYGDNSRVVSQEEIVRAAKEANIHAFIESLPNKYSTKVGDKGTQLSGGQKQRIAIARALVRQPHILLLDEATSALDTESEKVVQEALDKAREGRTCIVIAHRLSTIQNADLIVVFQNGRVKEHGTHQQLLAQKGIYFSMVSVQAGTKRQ

In ChEMBL document CHEMBL1908284, “Rational use of in vitro P-glycoprotein assays in drug discovery” (J Pharmacol Exp Ther, 2001):

Target: ATP-dependent translocase ABCB1 (Homo sapiens, UniProt P08183)
Conditions: spodoptera frugiperda, sf9, 20 µM
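Also: Compound-stimulated ATPase activity measured in membrane preparations of MDR1-expressing Sf9 cells.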

Ratio_ATPase activity: 1.01
SMILES: CCN(CC)CC(=O)Nc1c(C)cccc1C [LIDOCAINE]
